Assay results taken from patent US8901147B2, “Bi-heteroaryl compounds as Vps34 inhibitors” (Novartis AG, priority 2010, dated 2014).

Amino acid sequences for entries named in this document (tags omitted).
UniProt Q8NEB9, whole entry: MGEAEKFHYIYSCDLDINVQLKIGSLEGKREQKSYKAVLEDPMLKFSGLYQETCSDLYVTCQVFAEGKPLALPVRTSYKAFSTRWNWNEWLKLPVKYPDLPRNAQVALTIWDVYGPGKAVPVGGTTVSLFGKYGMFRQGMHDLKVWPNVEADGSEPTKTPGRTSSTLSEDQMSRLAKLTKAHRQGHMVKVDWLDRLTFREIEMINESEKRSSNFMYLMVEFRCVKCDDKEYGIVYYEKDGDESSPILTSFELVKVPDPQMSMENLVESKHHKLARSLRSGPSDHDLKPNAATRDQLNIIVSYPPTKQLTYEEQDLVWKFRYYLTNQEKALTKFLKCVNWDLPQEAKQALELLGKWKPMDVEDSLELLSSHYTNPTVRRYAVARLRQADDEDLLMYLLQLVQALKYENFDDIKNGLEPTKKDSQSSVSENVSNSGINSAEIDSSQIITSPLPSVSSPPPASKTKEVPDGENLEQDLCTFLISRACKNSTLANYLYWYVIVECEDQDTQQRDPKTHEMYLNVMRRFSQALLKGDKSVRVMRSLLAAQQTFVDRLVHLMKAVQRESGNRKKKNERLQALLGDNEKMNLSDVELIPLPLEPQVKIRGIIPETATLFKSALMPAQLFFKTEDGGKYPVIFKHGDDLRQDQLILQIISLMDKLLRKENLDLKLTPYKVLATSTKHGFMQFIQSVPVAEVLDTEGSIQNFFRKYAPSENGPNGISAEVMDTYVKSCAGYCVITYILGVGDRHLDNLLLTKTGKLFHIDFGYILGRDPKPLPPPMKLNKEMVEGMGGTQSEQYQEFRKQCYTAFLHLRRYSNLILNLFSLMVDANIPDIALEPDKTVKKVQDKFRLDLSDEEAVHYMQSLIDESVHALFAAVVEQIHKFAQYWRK

Target: recombinant human Vps34 (Homo sapiens, UniProt Q8NEB9)
Assay: Vps34 KinaseGlo assay
Assay type: biochemical
Conditions: read-out: Vps34 IC50; KinaseGlo luminescence ATP detection; PI/OG substrate; 1 μM ATP; room temperature; 8 concentrations, n=2

| SMILES | IC50 [µM] |
| --- | --- |
| Nc1ncc(-c2ccnc(NC3CCNCC3)n2)c(CC2CC2)n1 | 6.62 |
| CC(O)CNc1ncc(-c2ccnc(Nc3ccncc3)n2)c(CC2CC2)n1 (centres unmarked) [Example 10j, 1-(4′-(cyclopropylmethyl)-2-(pyridin-4-ylamino)-4,5′-bipyrimidin-2′-ylamino)propan-2-ol] | 0.0805 |
